We go through three sequences from a protein production outcome set (Wang et al. 2014).

The data set can be described thus: label from the status in PepcDB records.

Consider “MDLHLFDYSEPGNFSDISWPCNSSDCIVVDTVMCPNMPNKSVLLYTLSFIYIFIFVIGMIANSVVVWVNIQAKTTGYDTHCYILNLAIADLWVVLTIPVWVVSLVQHNQWPMGELTCKVTHLIFSINLFSSIFFLTCMSVDRYLSITYFTNTPSSRKKMVRRVVCILVWLLAFCVSLPDTYYLKTVTSASNNETYCRSFYPEHSIKEWLIGMELVSVVLGFAVPFSIIAVFYFLLARAISASSDQEKHSSRKIIFSYVVVFLVCWLPYHVAVLLDIFSILHYIPFTCRLEHALFTALHVTQCLSLVHCCVNPVLYSFINRNYRYELMKAFIFKYSAKTGLTKLIDASRVSETEYSALEQSTK”, for which the protein production result is reported as “failed”. As for “SRDIRFANHETLQVIYPYTPQNDDELELVPGDFIFMSPMEQTSTSEGWIYGTSLTTGCSGLLPENYITKADECSTWIFHGS”, the protein production entry is listed as “not failed”.

Regarding “SVDMMDLPRSRINAGMLAQFIDKPVCFVGRLEKIHPTGKMFILSDGEGKNGTIELMEPLDEEISGIVEVVGRVTAKATILCTSYVQFKEDSHPFDLGLYNEAVKIIHDFPQFYPLGIVQHD”, the protein production entry is “not failed”.
